# Target: T1, murine Jak2 protein tyrosine kinase (murine, UniProt Q62120)
# T1 construct: also called 130 kDa protein; p130
# Assay: pull-down from cell extracts on GST beads, Jak2 immunoblot
# Experimental: The fusion proteins were purified by affinity binding to glutathione-sepharose beads and the proteins, on affinity beads, were incubated with extracts of unstimulated or EPO stimulated DA3(EPOR) cells. The bound proteins were recovered from the beads, resolved on SDS-PAGE and the gels blotted to nitrocellulose. The blots were subsequently probed with antisera against various tyrosine kinases.
binder,measurement,value
"GST alone bound to glutathione-sepharose (other, UniProt P08515 1-218, looked up, Control; also called glutathione-S-transferase) MSPILGYWKIKGLVQPTRLLLEYLEEKYEEHLYERDEGDKWRNKKFELGLEFPNLPYYIDGDVKLTQSMAIIRYIADKHNMLGGCPKERAEISMLEGAVLDIRYGVSRIAYSKDFETLKVDFLSKLPEMLKMFEDRLCHKTYLNGDHVTHPDFMLYDALDVVLYMDPMCLDAFPKLVCFKKRIEAIPQIDKYLKSSKYIAWPLQGWQATFGGGDHPPK",binding result,no binding

# Source: US6969760 (ST JUDE CHILDREN S RESEARCH HOSPITAL, dated 2005)
